Our source for the inhibition values is PubChem BioAssay AID2174 (The Scripps Research Institute Molecular Screening Center, 2009).

Amino acid sequences for entries named in this document (tags omitted). A change or cut given only in a name is not applied to a line headed by its entry.
UniProt O75608: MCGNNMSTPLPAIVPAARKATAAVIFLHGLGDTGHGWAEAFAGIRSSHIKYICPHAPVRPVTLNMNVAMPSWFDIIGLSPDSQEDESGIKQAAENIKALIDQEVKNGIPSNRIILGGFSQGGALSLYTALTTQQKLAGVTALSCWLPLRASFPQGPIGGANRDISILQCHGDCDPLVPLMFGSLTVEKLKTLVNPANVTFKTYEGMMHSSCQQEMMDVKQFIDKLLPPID

The list shows a part of the results, in another mix than the full data. The source made the active and inactive calls.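 How the source made its calls: active means inhibition above the mean of all tested compounds plus 3 SD, set per campaign (cut at about 14% in these data); inactive means the rest.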

The target in this assay is Acyl-protein thioesterase 1 (Homo sapiens) (UniProt O75608). Put plainly: LYPLA1 inhibitors, primary screen, counter-screen for PME1 inhibitor project, biochemical, fluorescence polarization, FP-Rh probe ABPP (AID 2174).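 Further: inhibitors block serine hydrolase probe labeling of LYPLA1 so polarization falls; 0% = enzyme with DMSO and 100% = wells lacking LYPLA1.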 The note with it: recombinant LYPLA1, FP-Rh probe fluorescence polarization; at 5.9 µM; stronger effect = higher value.
`Cc1cc(SC(NC(=O)c2ccccc2)C(Cl)(Cl)Cl)nc(C(C)C)n1` (stereo unspecified): the inhibition was inactive: -3.76%. Turning to `CCOC(=O)Nc1ccc([As](=O)(O)O)c(O)c1`, the inhibition is inactive: -0.4%. As for `Cc1cc(SC(NC=O)C(Cl)(Cl)Cl)ncn1` (stereo unspecified), the inhibition is inactive: -0.02%. Take `O=P(Nc1ccccn1)(c1cccc2ccccc12)c1cccc2ccccc12`: the inhibition is inactive: -2.08%.

On to `CCOC(=O)Nc1cccc([As](=O)(O)O)c1`, for which the inhibition was inactive: 4.76%. Next, `O=C(Nc1ccncc1[N+](=O)[O-])c1ccc([N+](=O)[O-])cc1[N+](=O)[O-]`: inactive: 0.24%; `O=C(COc1ccccc1)OC1CN2CCC1CC2` (stereo unspecified): inactive: -3.11%. With `COP1(=S)c2c(C)nn(CCC#N)c2N=C(c2ccc(F)cc2)N1C` (stereo unspecified), the inhibition was inactive: -4.98%. Consider `CCC(C)N(CC(C)C)C(=S)SC(NC(C)=O)C(Cl)(Cl)Cl` (stereo unspecified), for which the inhibition is inactive: 1.83%. Turning to `CCOC(=O)c1ccc(NC(=O)C(C)(CCl)SC)cc1` (stereo unspecified), the inhibition was inactive: -2.51%. On to `O=C(OC1CN2CCC1CC2)c1cccc([N+](=O)[O-])c1` (stereo unspecified), for which the inhibition was inactive: -0.34%. On to `COc1cc(I)ccc1[As](=O)(O)O`, for which the inhibition is inactive: 0.57%. `COc1ccc2nc(NP(=O)(c3ccccc3)c3ccccc3)sc2c1`: the inhibition is inactive: -2.44%. Turning to `Cc1cc(=O)[nH]c(N[N+](=O)[O-])n1`, the inhibition is inactive: 3.73%. Under `O=C(OC1CN2CCC1CC2)C12CC3CC(CC(C3)C1)C2` (stereo unspecified) stands inactive: 1.89%; under `Cc1c2c(nc3ccccc13)SC(C(Cl)Cl)C2` (stereo unspecified), inactive: -4.2%; under `COc1ccc(N/C(=N/P(=O)(N2CCOCC2)N2CCOCC2)N2CCOCC2)cc1`, inactive: 1.58%. In the case of `Cc1ccc2nc3c(c(C)c2c1)CC(C(Cl)Cl)S3` (stereo unspecified), the inhibition is inactive: -0.31%. Next, `Cc1ccc(OP(=O)(Nc2ccc([N+](=O)[O-])cn2)Oc2ccc(C)cc2)cc1`: inactive: 2.85%; `COc1cc(C(=O)NCC2(N3CCOCC3)CCCCC2)ccc1OCC(C)C`: inactive: -0.65%; `O=[As](O)(c1ccc(O)cc1)c1ccccc1O`: inactive: -1.4%. On to `C[As](=O)(O)c1cccc(C(=O)O)c1`, for which the inhibition was inactive: 4.54%. Turning to `O=[N+]([O-])c1cc([N+](=O)[O-])c(-c2ccn[nH]2)s1`, the inhibition is inactive: -0.32%. Turning to `CC(C)NC(=O)NP(=O)(Oc1ccccc1)Oc1ccccc1`, the inhibition was inactive: 2.97%. Regarding `CCN(CC)C(=S)SC(NC=O)C(Cl)(Cl)Cl` (stereo unspecified), the inhibition was inactive: -0.56%. `CC(C)c1ccc(OP(=O)(Nc2ccccn2)Oc2ccccc2F)cc1` (stereo unspecified): the inhibition was inactive: 1.31%. Regarding `ClCCSc1nnc(-c2cccnc2)o1`, the inhibition is inactive: 3.59%. For the molecule `O=C(O)COc1ccc([As](=O)(O)O)cc1[N+](=O)[O-]`, the inhibition was inactive: 5.06%. With `Nc1ccccc1[As](=O)(O)c1ccccc1`, the inhibition was inactive: -2.45%. For the molecule `CS(=O)(=O)c1cc([N+](=O)[O-])c2no[n+]([O-])c2c1`, the inhibition is inactive: -2.89%.

Regarding `O=P(Nc1nccs1)(Oc1ccccc1)Oc1ccccc1`, the inhibition is inactive: -0.33%. As to `O=P(Nc1nccs1)(c1ccccc1)c1nc2ccccc2s1` (stereo unspecified), the inhibition was inactive: -1.98%. For the molecule `CCOP1(=S)c2c(C)nn(CCC#N)c2N=C(c2ccccc2F)N1C` (stereo unspecified), the inhibition is inactive: 1.64%. `CN(C(=O)Cc1ccc(Cl)c(Cl)c1)[C@H]1CC[C@@]2(CCCO2)C[C@@H]1N1CCCC1`: the inhibition is inactive: -2.36%.

Take `O=[N+]([O-])c1ccc2c(c1)nnn2O`: the inhibition was inactive: 2.13%. Regarding `CN(C)C(=O)c1cc([N+](=O)[O-])cc2c1-c1c(cc([N+](=O)[O-])cc1[N+](=O)[O-])C2=O`, the inhibition was active: 14.7%. `CN(C(=O)Cc1ccccc1)[C@@H]1CC[C@]2(CCCO2)C[C@H]1N1CCCC1`: the inhibition is inactive: 0.36%. On to `CCOP1(=S)c2c(C)nn(CCC#N)c2N=C(c2ccc(F)cc2)N1C` (stereo unspecified), for which the inhibition was inactive: -0.54%. Turning to `N#CCCN(C(=O)COC(=O)C(O)(c1ccccc1)c1ccccc1)c1ccc(F)cc1`, the inhibition was inactive: -0.8%.

As to `NC(=O)Nc1ccc([As](=O)(O)O)cc1`, the inhibition is inactive: -0.27%. Under `Cc1cccc(OCC(=O)OC2CN3CCC2CC3)c1` (stereo unspecified) stands inactive: 1.58%; under `O=[As](O)(c1cccc(O)c1)c1cccc(O)c1`, inactive: 2.69%. For the molecule `CS(=O)(=O)c1ccc(Cl)c(NC(=O)COC(=O)C(O)(c2ccccc2)c2ccccc2)c1`, the inhibition is inactive: -1.46%. Take `O=[As](O)(O)c1cccnc1`: the inhibition was inactive: 2.33%. As for `COc1cc(C(=O)NCC2(N3CCOCC3)CCCCC2)cc(Cl)c1OC(C)C`, the inhibition is inactive: -1.31%. Take `O=C(OC1CN2CCC1CC2)c1ccc(Cl)cc1` (stereo unspecified): the inhibition is inactive: -0.08%.

As for `CCOP(=O)(Nc1cccc2ccccc12)OCC`, the inhibition was inactive: -0.79%.

With `COc1cc(C2NCCC3(OCCO3)C2(C)C)cc(OC)c1OC` (stereo unspecified), the inhibition is inactive: 3.27%.

Consider `CCCOP(=S)(Nc1nc(N)cc(=O)[nH]1)OCCC`, for which the inhibition is inactive: -2.64%.

As for `Nc1cccc2c([As](=O)(O)O)cccc12`, the inhibition is active: 18.6%. As for `Cc1ccc(NCCc2c([N+](=O)[O-])cc([N+](=O)[O-])cc2[N+](=O)[O-])cc1`, the inhibition is inactive: -4.1%. As for `CC(C)(C)C(=O)NC(Sc1ncccn1)C(Cl)(Cl)Cl` (stereo unspecified), the inhibition is inactive: 2.71%. On to `Clc1n[nH]nc1-c1nn[nH][15n]1`, for which the inhibition was inactive: -5.98%.

As to `CCOP(=O)(Nc1ccc(C)cn1)OCC`, the inhibition is inactive: -0.19%. For `CN(CCCl)Cc1cc(Cl)c(NC2=NCCN2)c(Cl)c1`, the inhibition is inactive: -2.41%. Turning to `CCOP(=O)(NC(=NC(C)c1ccccc1)NC(C)c1ccccc1)OCC` (stereo unspecified), the inhibition was inactive: -2.04%. Next, `CCC1=CC2Cc3nc4ccc(Cl)cc4c(N)c3C(C1)C2` (stereo unspecified): inactive: 0.67%; `O=P1(Nc2ccccn2)COc2ccccc2OC1`: inactive: -2.29%; `CC1(CBr)Cn2c(nc3ccccc3c2=O)S1` (stereo unspecified): inactive: 0.95%. In the case of `O=[As](O)(c1ccccc1Br)c1ccccc1Br`, the inhibition is inactive: 0.24%. Regarding `CN(C(=O)Cc1ccc(Cl)c(Cl)c1)[C@@H]1CCCC[C@H]1N1CCCC1`, the inhibition is inactive: 1.8%.

For the molecule `CC(C)/C=N\N=C(\N)N[N+](=O)[O-]`, the inhibition was inactive: 1.48%. Regarding `COc1ccccc1CNC(=O)COC(=O)C(O)(c1ccccc1)c1ccccc1`, the inhibition is inactive: -0.22%. Under `O=C(/C=C/c1ccccc1)OC1CN2CCC1CC2` (stereo unspecified) stands inactive: 1.47%. For `CN(C)C1(CNC(=O)c2ccc(S(C)(=O)=O)cc2)CCCCC1`, the inhibition was inactive: -1.44%. Regarding `Cc1ccc(C(=O)OC2CN3CCC2CC3)cc1` (stereo unspecified), the inhibition was inactive: -1.54%. Next, `CC1CCC(C(C)C)C(OP(=O)(Nc2ccccn2)c2ccccc2)C1` (stereo unspecified): inactive: 1.65%. Take `Cc1nn(-c2ccccc2)c2c1P(=O)(N1CCOCC1)N(C)C(c1ccccc1)=N2` (stereo unspecified): the inhibition is inactive: 1.32%.

For the molecule `O=[As](O)(c1cccs1)c1cccs1`, the inhibition is inactive: -1.1%. Next, `Cc1ccc(OCC(=O)OC2CN3CCC2CC3)cc1` (stereo unspecified): inactive: -0.38%; `NS(=O)(=O)c1cccc(NC(=O)COC(=O)C(O)(c2ccccc2)c2ccccc2)c1`: inactive: -2.86%.

Turning to `O=P1(Nc2ccc(Br)cn2)COc2ccccc2OC1`, the inhibition was inactive: -1.34%. Next, `Nc1cccc([As](=O)(O)c2ccccc2)c1`: inactive: 1.14%; `O=P1(Nc2ncccn2)COc2ccccc2OC1`: inactive: -2.16%; `C[C@H]1OP(=O)(Oc2ccccc2)[C@H](O)[C@H](O)[C@H]1N=[N+]=[N-]` (stereo partly specified): inactive: -1.81%.

`O=P(Nc1nc2ccccc2s1)(c1ccccc1)c1ccccc1`: the inhibition is inactive: 1.39%.

For `CN(C)C1(CNC(=O)c2ccc(Cl)c(S(N)(=O)=O)c2)CCCCC1`, the inhibition was inactive: 3.48%. As to `O=P(Nc1ccccn1)(c1ccc(Br)cc1)c1ccc(Br)cc1`, the inhibition is inactive: -2.02%. Consider `C(Cc1nn[nH]n1)Cc1nn[nH]n1`, for which the inhibition was inactive: 0.93%. Under `Nc1ccc([As](=O)(O)c2ccc([N+](=O)[O-])cc2)cc1` stands inactive: -0.8%; under `O=C(OC1CN2CCC1CC2)c1cccc(Cl)c1` (stereo unspecified), inactive: -2.04%.

Take `O=[N+]([O-])c1ncn(CCn2cnc([N+](=O)[O-])n2)n1`: the inhibition was inactive: 2.15%. Under `CC(=O)NC(SC(=S)N(C)C)C(Cl)(Cl)Cl` (stereo unspecified) stands inactive: 1.47%; under `O=[N+]([O-])c1ccc(O)c(/C=N/Nc2ccc([N+](=O)[O-])cc2[N+](=O)[O-])c1`, inactive: 1%; under `O=[As](O)(c1ccccc1)c1ccc(O)cc1`, inactive: -4.85%. Turning to `c1nnnn1CCn1cnnn1`, the inhibition was inactive: -1.72%. Regarding `O=P(Nc1nccs1)(c1ccccc1)c1ccccc1`, the inhibition is inactive: 1.81%. Next, `CC(C)C(=O)NC(Sc1ccccc1)C(Cl)(Cl)Cl` (stereo unspecified): inactive: 0.21%.

In the case of `CC(C)(C)C(=O)NC(Sc1ccccc1)C(Cl)(Cl)Cl` (stereo unspecified), the inhibition was inactive: 5.76%. As to `CCOc1ccc(C2=NCC(CBr)S2)cc1` (stereo unspecified), the inhibition was inactive: -0.05%. Next, `O=P1(Nc2nc3ccc(Cl)cc3s2)COc2ccccc2O1` (stereo unspecified): inactive: -0.76%; `CC(=O)Nc1ccc(Oc2c([N+](=O)[O-])cc([N+](=O)[O-])cc2[N+](=O)[O-])cc1`: inactive: 2.89%; `CC(=O)Nc1ccc([As](=O)(O)O)c(O)c1`: inactive: 1.14%. Next, `CC(=O)c1ccc(N2CC2c2ccncc2)cc1` (stereo unspecified): inactive: 0.98%; `C[C@H]1OP(=O)(Oc2ccccc2)C[C@@H]2O[C@@H]21` (stereo partly specified): inactive: -1.51%.

For `C[C@@H]1C=CCP(=O)(Oc2ccccc2)O1` (stereo partly specified), the inhibition was inactive: 0.86%. For `Cc1ccccc1CN(C)C(=O)COC(=O)C(O)(c1ccccc1)c1ccccc1`, the inhibition is inactive: 1.4%. `O=C(NC1CCS(=O)(=O)C1)NP(=S)(Oc1ccccc1)Oc1ccccc1` (stereo unspecified): the inhibition was inactive: -0.69%.

Regarding `CCNC(=S)/N=C(\N)N[N+](=O)[O-]`, the inhibition was inactive: -3.85%. Under `CCOC(=O)NC(Sc1ccccc1)C(Cl)(Cl)Cl` (stereo unspecified) stands inactive: 3.62%. For the molecule `Cc1ccc(NP(=O)(Oc2cccc(C)c2)Oc2cccc(C)c2)nc1`, the inhibition is inactive: -0.66%.

A word on the inhibition: it is the drop in the measured response relative to a control, in per cent.
